Water solubility values, as collected for the OPERA models

From the experimental data distributed with OPERA 2.9.

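The numbers are reported measurements, compiled and curated for the OPERA QSAR suite. A listed value is a point estimate from one report or more. Conditions of the individual experiments are not part of the data. Where a salt, mixture or single isomer is drawn, the source does not say that exactly this form was tested. Some upstream entries may be estimates or bounds without being marked so.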

Water solubility is log10 of mol/L, nominally at 25 °C; higher is more soluble.

C=C1/C(=C\C=C2/CCC[C@]3(C)[C@@H]([C@H](C)CCCC(C)C)CC[C@@H]23)C[C@@H](O)C[C@@H]1O [Alfacalcidol] has log solubility -5.391 (log10 mol/L). Listed for I/C=C/I: log solubility -3.22 (log10 mol/L). The entry for CC(=O)OCCSCCOC(C)=O [Ethanol, 2,2'-thiodi-, diacetate] lists log solubility -0.98 (log10 mol/L). C[C@@H]1CC[C@H]2C(C)(C)[C@H]3C[C@@]12CC[C@@]3(C)O [(+)-Cedrol] is reported with log solubility -4.974 (log10 mol/L). The entry for NC(=O)NC(=O)Cc1ccccc1 [Phenacemide] lists log solubility -2.226 (log10 mol/L). Listed for FCOC(C(F)(F)F)C(F)(F)F [Sevoflurane]: log solubility -2.131 (log10 mol/L). The entry for O=CCc1ccc2c(c1)OCO2 [1,3-benzodioxol-5-ylacetaldehyde] lists log solubility -1.959 (log10 mol/L).

For CCCCc1nc(CCCC)n(Cc2ccc(-c3ccccc3-c3nn[nH]n3)nc2)n1 [Forasartan] the data give log solubility -4.796 (log10 mol/L). CNC(=O)Nc1ccc(Cl)c(Cl)c1 [N-(3,4-Dichlorophenyl)-N'-methylurea] is reported with log solubility -3.31 (log10 mol/L). The entry for O=C(O)C(F)(F)C(F)(F)C(F)(F)C(F)(F)C(F)(F)C(F)(F)C(F)(F)C(F)(F)C(F)(F)C(F)(F)C(F)(F)C(F)(F)C(F)(F)C(F)(F)C(F)(F)F [Perfluorohexadecanoic acid] lists log solubility -6.726 (log10 mol/L). The entry for CC(C)=C(C)C(=O)O [2,3-dimethylbut-2-enoic acid] lists log solubility -0.367 (log10 mol/L). Listed for CCC1NC(=O)NC1=O (centres undefined): log solubility -0.06 (log10 mol/L). The entry for Cc1cc(C)cc(NC(=O)N(C)C)c1 [N'-(3,5-Dimethylphenyl)-N,N-dimethylurea] lists log solubility -2.22 (log10 mol/L). Listed for Cc1ccc(/C(=C\CN2CCCC2)c2ccccn2)cc1 [Triprolidine]: log solubility -3.715 (log10 mol/L).

On1nnc2ccccc21 [1-Hydroxybenzotriazole] is reported with log solubility -1.507 (log10 mol/L). CCn1c(=O)c2c(nc(/C=C/c3ccc(OC)c(OC)c3)n2C)n(CC)c1=O [Istradefylline] is reported with log solubility -5.886 (log10 mol/L). The entry for Oc1ccc(N=Nc2ccc(N=Nc3ccccc3)cc2)cc1 [C.I. Disperse Yellow 23] lists log solubility -9.699 (log10 mol/L). CC/C=C/CCCCCCCCCCOC(C)=O [(E)-11-Tetradecen-1-ol acetate] is reported with log solubility -4.67 (log10 mol/L). CCCCCOC(=O)C(C)OC(C)=O (centres undefined) [Pentyl 2-acetoxypropanoate] has log solubility -0.819 (log10 mol/L). Clc1cc(Oc2ccc(Cl)c(Cl)c2Cl)cc(Cl)c1Cl [2,3,3',4,4',5'-Hexachlorodiphenylether] is reported with log solubility -8.49 (log10 mol/L). Nc1ncnc2c1[n+]([O-])cn2[C@@H]1O[C@H](CO)[C@@H](O)[C@H]1O is reported with log solubility -4.611 (log10 mol/L).

For Cn1c(=S)c2c(ncn2C)n(C)c1=O [6-Thiocaffeine] the data give log solubility -3.323 (log10 mol/L). For O=C(Nc1ccc(S(=O)(=O)O)cc1)c1cc2ccccc2cc1O [4-[(3-Hydroxy-2-naphthoyl)amino]benzenesulfonic acid] the data give log solubility -2.592 (log10 mol/L). Listed for CC/C=C\CCCCCCCCCCO [(Z)-11-Tetradecen-1-ol]: log solubility -4.73 (log10 mol/L). The entry for Cc1cc(NC(N)=O)ccc1Br [(3-Methyl-4-bromophenyl)urea] lists log solubility -3 (log10 mol/L). COc1cccc(NC(=O)N(C)C)c1 [Urea, 3-(m-methoxyphenyl)-1,1-dimethyl-] is reported with log solubility -2.1 (log10 mol/L). The entry for Clc1ccc(CO/N=C(\Cn2ccnc2)c2ccc(Cl)cc2Cl)c(Cl)c1.O=[N+]([O-])O [Oxiconazole nitrate] lists log solubility -5.411 (log10 mol/L). CCNC(=O)Nc1c(C)n(C)n(-c2ccccc2)c1=O has log solubility -1.825 (log10 mol/L).

Nc1nc2ncncc2[nH]1 [7H-purin-8-amine] has log solubility -2.415 (log10 mol/L). Listed for CC(C)=CCCC(C)=CCCC(C)=CCO [Farnesol]: log solubility -4.531 (log10 mol/L). The entry for COC(=O)c1cc(N=NC(C(C)=O)C(=O)Nc2ccc3[nH]c(=O)[nH]c3c2)cc(C(=O)OC)c1 (centres undefined) lists log solubility -6.378 (log10 mol/L). For O=C1c2ccccc2C(=O)c2c(NCCO)ccc(NCCO)c21 the data give log solubility -5.77 (log10 mol/L). For Nc1[nH]c(=O)nc2[nH]c(=O)[nH]c12 [2,8-Dihydroxyadenine] the data give log solubility -4.922 (log10 mol/L). O=C(O)CS(=O)(=O)CCS(=O)(=O)CC(=O)O [2-[2-(carboxymethylsulfonyl)ethylsulfonyl]acetic acid] has log solubility -1.73 (log10 mol/L). FCF [Difluoromethane] is reported with log solubility -1.479 (log10 mol/L).

For C[C@@H]1OC(O)[C@@H](O)[C@H](O)[C@@H]1O (stereo partly drawn) [6-Deoxy-L-galactopyranose] the data give log solubility 0.778 (log10 mol/L). The entry for O=c1[nH]c2[nH]c(=S)[nH]c(=O)c2[nH]c1=O [2-sulfanylidene-5,8-dihydro-1H-pteridine-4,6,7-trione] lists log solubility -2.23 (log10 mol/L). The entry for CN(Cc1cc(Br)cc(Br)c1N)C1CCCCC1.Cl [Bromhexine hydrochloride] lists log solubility -5.01 (log10 mol/L).

Excerpt, the final 5 entries:

| SMILES | name | log solubility (log10 mol/L) |
|---|---|---|
| O=C(O)CS(=O)(=O)CCS(=O)(=O)CC(=O)O | 2-[2-(carboxymethylsulfonyl)ethylsulfonyl]acetic acid | -1.73 |
| FCF | Difluoromethane | -1.479 |
| C[C@@H]1OC(O)[C@@H](O)[C@H](O)[C@@H]1O (stereo partly drawn) | 6-Deoxy-L-galactopyranose | 0.778 |
| O=c1[nH]c2[nH]c(=S)[nH]c(=O)c2[nH]c1=O | 2-sulfanylidene-5,8-dihydro-1H-pteridine-4,6,7-trione | -2.23 |
| CN(Cc1cc(Br)cc(Br)c1N)C1CCCCC1.Cl | Bromhexine hydrochloride | -5.01 |